From patent US9139795B2, “Biodegradable lubricant composition” (IDEMITSU KOSAN CO., LTD., priority 2009, dated 2015)

Assay: Biodegradability, modified MITI test method (OECD301C)
Conditions: base oil ester alone

di(pentaerythritol)oleate
Biodegradability: 62.0%
